Measured values: article PMC5080452 (Bioorganic & Medicinal Chemistry, 2016)

The chains behind the UniProt entries cited, without tags or fusion partners. Residues count along the entry.
UniProt O42275, 24-633: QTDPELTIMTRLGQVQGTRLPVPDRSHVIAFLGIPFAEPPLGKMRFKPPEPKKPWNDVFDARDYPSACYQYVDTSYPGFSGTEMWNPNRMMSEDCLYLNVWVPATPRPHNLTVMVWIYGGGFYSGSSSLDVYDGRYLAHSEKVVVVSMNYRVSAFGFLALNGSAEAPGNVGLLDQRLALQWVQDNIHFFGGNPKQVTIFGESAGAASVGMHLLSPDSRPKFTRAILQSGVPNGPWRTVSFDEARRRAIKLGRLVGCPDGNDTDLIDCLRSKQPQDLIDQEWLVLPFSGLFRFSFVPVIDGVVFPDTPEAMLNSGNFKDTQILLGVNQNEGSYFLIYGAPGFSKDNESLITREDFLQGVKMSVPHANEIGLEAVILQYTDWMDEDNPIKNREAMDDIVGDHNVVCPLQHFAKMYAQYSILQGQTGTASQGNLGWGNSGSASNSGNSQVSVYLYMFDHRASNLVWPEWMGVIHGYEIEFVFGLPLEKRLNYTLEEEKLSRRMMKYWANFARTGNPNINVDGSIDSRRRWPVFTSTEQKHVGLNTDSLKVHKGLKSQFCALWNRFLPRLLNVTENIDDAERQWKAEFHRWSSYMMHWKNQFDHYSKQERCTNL

Target: T1, Electrophorus electricus (Ee) AChE (Electrophorus electricus, UniProt O42275)
T1 construct: purchased Sigma-Aldrich
Assay: Acetylcholinesterase inhibitory activity (Ellman method)
Assay type: biochemical

For `N=C(N)NCCCCCCCCCNc1c2c(nc3ccccc13)CCCC2` [15e, 1-{9-[(1,2,3,4-Tetrahydroacridin-9-yl)amino]nonyl}guanidine], the “decrease in AChE inhibitory activity relative to huprine Y” value (EeAChE IC50 values) was 100 fold and the “anticholinesterasic activity relative to activity against trypanosomes (greater)” value (EeAChE IC50 vs T. brucei IC50) was 4 fold.
